Results reported in patent publication US9701672B2, “Dihydropyridinone MGAT2 inhibitors for use in the treatment of metabolic disorders” (BRISTOL-MYERS SQUIBB COMPANY, priority 2014, dated 2017).

Protein sequences, listed by entry. Tags and fused reporters are not part of them.
UniProt Q3SYC2, whole entry: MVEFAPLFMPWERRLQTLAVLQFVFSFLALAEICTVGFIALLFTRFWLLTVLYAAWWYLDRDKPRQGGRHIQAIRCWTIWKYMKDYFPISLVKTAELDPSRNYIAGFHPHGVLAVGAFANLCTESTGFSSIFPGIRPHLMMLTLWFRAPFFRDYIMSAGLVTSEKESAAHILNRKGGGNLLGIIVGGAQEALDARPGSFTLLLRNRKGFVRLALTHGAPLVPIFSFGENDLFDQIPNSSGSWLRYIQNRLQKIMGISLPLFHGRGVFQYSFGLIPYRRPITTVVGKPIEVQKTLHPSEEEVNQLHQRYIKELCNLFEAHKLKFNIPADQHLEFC

Molecular target: human MGAT-2 (Homo sapiens (Human), UniProt Q3SYC2)
Test: MGAT LCMS assay (h-MGAT LCMS)
Assay type: biochemical
Conditions: read-out: h-MGAT LCMS IC50; human MGAT2 membranes expressed in Sf9 cells; 100 μM 2-oleoylglycerol, 15 μM oleoyl-coenzyme A

Row | Compound | IC50
1 | O=C1N[C@@](c2ccc(OCCCCCC(F)(F)F)cc2F)(C(F)(F)F)CC(c2ccc(C3CC3)s2)=C1c1nnn[nH]1 | 0.9 nM
2 | O=C1N[C@@](c2ccc(OCCCCCC(F)(F)F)cc2)(C(F)(F)F)CC(c2ccc(C3CC3)s2)=C1c1nnn[nH]1 | 1.5 nM
3 | O=C1N[C@@](c2cnn(CCCCCC(F)(F)F)c2)(C(F)(F)F)CC(c2ccc(C3CC3)s2)=C1c1nnn[nH]1 | 7.8 nM
